Data as given in patent publication EP4831299A1, “VIDEO DISPLAY TERMINAL ASSOCIATED DRY EYE DISEASE DIAGNOSTIC BIOMARKER BASED ON EPITHELIAL-MESENCHYMAL TRANSITION AND FIBROSIS, AND THERAPEUTIC DRUG” (dated 2026).

Key:
[1] = system: VDT-associated dry eye disease model mice; experiment: Corneal fluorescein sodium staining in ICES mouse model of VDT-associated dry eye disease; settings: 0.5% eye drops, summary statement
Experimental: • 1) Preparation of 0.5% Anti-Fibrotic Agent Solution: • (1) 20 mg of anti-fibrotic agent was weighed; • (2) the agent was completely dissolved in 40 µL DMSO; • (3) normal saline was slowly added to a total volume of 4 mL; and • (4) the solution was placed on a shaker overnight to ensure thorough mixing; final concentration: 0.5% (w/v). • 2) Preparation of Control Vehicle Solution: • (1) 40 µL DMSO was measured; • (2) normal saline was added to a total volume of 4 mL; and • (3) mixed gently.
(§1) This example used the Intelligent Controlled Environment System (ICES) to establish a mouse model of VDT-associated dry eye disease. Mice were placed in the ICES under adverse conditions simulating a VDT environment for 2 weeks to induce VDT-associated dry eye disease formation. After modeling was completed, mice continued to be raised under ICES conditions to maintain the VDT-associated dry eye disease state, more closely resembling real-world conditions. […]
0.5 µL of 5% fluorescein sodium solution was instilled into the conjunctival sac of mice using a micropipette. […] Scoring was recorded by a fixed examiner in a masked manner, according to the National Eye Institute standard grading system. […] Each region was scored 0-4 grade (0: no punctate staining; 1 grade: 1-5 punctate stains; 2 grade: 6-15 punctate stains; 3 grade: 16-30 punctate stains; 4 grade: 30 or more punctate stains). […]

Twist1 = experiment: Real-time quantitative PCR of conjunctival tissue, Twist1; settings: qPCR, n=4, 0.5% eye drops twice daily
Experimental: Total RNA was extracted from conjunctival tissue according to the manufacturer's instructions (Cat: 74106, RNeasy mini kit, Qiagen, Crawley, U.K.). cDNA was synthesized from 0.5 µg of total RNA using random primers and M-MLV reverse transcriptase (Cat: 28025013, Applied Biosystems, Paisley, UK). Quantitative real-time polymerase chain reaction (qRT-PCR) analysis was performed using Power SYBR Green PCR Master Mix (Cat: A25742, Applied Biosystems, Paisley, UK) and Applied Biosystems Quant Studio 6 Real-Time PCR System (Applied Biosystems, Paisley, UK). Results were analyzed using the comparative threshold cycle (CT) method and normalized with GAPDH as an endogenous reference.
• Twist1: forward, 5'-[…]-3'; reverse, 5'-[…]-3'; • IL-1β: forward, 5'-[…]-3', reverse, 5'-[…]-3'; • IL-17a: forward, 5'-[…]-3', reverse, 5'-[…]-3'; • IFNγ: forward, 5'-[…]-3', reverse, 5'-[…]-3'; • TNFα: forward, 5'-[…]-3', reverse, 5'-[…]-3'.
as §1

CCL2 = experiment: Flow cytometry of conjunctival tissue, CCL2 expression of CK PAN / CD140a cells; settings: fibroblast-like epithelial cells of conjunctiva, n=3, 0.5% eye drops
Experimental: After euthanizing the mice, the palpebral and bulbar conjunctiva were excised to obtain conjunctival tissue. Conjunctival tissue from three mice per group was pooled as one sample and stored in MACS Tissue Storage Solution (Miltenyi Biotec). The samples were washed in phosphate-buffered saline containing 20 mM EDTA and shaken at 37°C for 15 minutes. The tissues were then cut into fragments and digested in RPMI 1640 medium (Thermo Fisher Scientific) containing collagenase IV (Gibco; 1000 U/mL) at 37°C for 30 minutes, followed by filtration through a 70 µm cell strainer. Red blood cells and dead cells were removed using red blood cell lysis buffer (Sigma Aldrich) and Dead Cell Removal Kit (Miltenyi Biotec), respectively. 10 µL of the suspension was counted under an inverted microscope using a hemocytometer. Cells were observed under a microscope after trypan blue staining.
Single-cell suspensions were prepared as described above. For cell surface staining, cells were blocked with CD16/32 FcR-block (Cat: 101302, BioLegend) for 10 minutes. After staining with Fixable Viability Stain (Cat: 564406, BD), cells were stained with surface markers at 4°C for 30 minutes. […] Flow cytometry data were analyzed using Flowjo software (version 10.5.3, BD). […]

[2] = system: immune cell infiltration in the conjunctival stroma; experiment: Immunofluorescence of conjunctiva, anti-CD45 staining; settings: n=3, 0.5% eye drops
Experimental: Conjunctival tissue and eyeballs from three mice per group were embedded in Optimal Cutting Temperature compound (Cat: 4583, SAKURA) and frozen in liquid nitrogen. The samples were then sectioned into 10 µm-thick sections and stored at -80°C. For staining, sections were thawed at room temperature. After thawing, they were fixed in 4% formaldehyde for 15 minutes. Then, sections were blocked with blocking buffer (Cat: ab64226, Abcam) containing 0.4% Triton X-100 (Cat: T8787, Sigma Aldrich) at room temperature for >60 minutes. Subsequently, sections were incubated with primary antibodies and corresponding fluorescently conjugated secondary antibodies according to the manufacturer's recommended sequence. 4',6-Diamidino-2-phenylindole (Cat: S36938, DAPI, Invitrogen) was added for 5 minutes. Images were captured using a laser scanning confocal microscope (LSM880, Carl Zeiss Meditec, Sartrouville, Germany).
anti-IGFBP2 antibody (dilution: 1:500, Cat: ab188200, abcam), anti-CD45 antibody (dilution: 1:200, Cat: MAB114, R&D Systems). Other antibodies were as described in Example 1.
This example used the Intelligent Controlled Environment System (ICES) to establish a mouse model of VDT-associated dry eye disease. Mice were placed in the ICES under adverse conditions simulating a VDT environment for 2 weeks to induce VDT-associated dry eye disease formation. […]

With `Cc1ccc(=O)n(-c2ccccc2)c1` the corneal damage [1] was “significantly improve”, the “expression level of Twist1” value (Twist1) was “significantly downregulated” and the CCL2 expression (CCL2) was “reduce”. For the same compound, the immune cell infiltration [2] was “reduce”.
